The entries are a selection whose mix differs from that of the whole data set. Active and inactive are the calls of the source. Cut-off read from the data, not from the text of the source: active = inhibition above about 50%; inactive = the rest.

Chains of the proteins cited; added tags and fusions are not shown.
UniProt P34949, whole entry: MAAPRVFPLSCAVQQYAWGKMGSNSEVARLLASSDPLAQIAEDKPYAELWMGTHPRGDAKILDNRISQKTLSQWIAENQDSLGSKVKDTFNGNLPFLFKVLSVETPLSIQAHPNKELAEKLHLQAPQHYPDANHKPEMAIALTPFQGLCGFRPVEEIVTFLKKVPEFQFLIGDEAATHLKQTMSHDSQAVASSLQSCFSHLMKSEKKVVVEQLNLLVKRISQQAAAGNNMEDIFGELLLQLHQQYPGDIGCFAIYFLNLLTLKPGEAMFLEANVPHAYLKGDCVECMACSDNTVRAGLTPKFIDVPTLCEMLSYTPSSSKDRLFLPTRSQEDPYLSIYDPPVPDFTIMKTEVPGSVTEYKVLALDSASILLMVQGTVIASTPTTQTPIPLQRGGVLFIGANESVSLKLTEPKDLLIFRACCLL

In the experiment the target is Mannose-6-phosphate isomerase (Homo sapiens) (UniProt P34949). The experiment is described as follows: inhibitors of human PMI, primary screen, biochemical, fluorescence intensity, coupled assay (AID 1209).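 Note: plate controls were DMSO vehicle for no effect and wells lacking substrate for full effect.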 To be noted: purified PMI enzyme, at 20 µM, hits give high values.
`CCOc1ncccc1C(=O)NCC1(N2CCOCC2)CCCCC1`: the inhibition was inactive: 6.1%.
The same measure for `CC(C)(C)OC(=O)N1CCC(Nc2ccccc2)CC1`: inactive: -12.3%; for `COc1cc(OC)cc(C(=O)NCC2(N3CCOCC3)CCCCC2)c1`: inactive: -7.3%; for `CCC(CO)(C(=O)OC1CN2CCC1CC2)c1ccccc1` (stereo not given): inactive: -1.6%.
The value for `Fc1ccccc1NC1CCN(Cc2ccccc2)CC1` was inactive: -16.8%.
The value for `CCN1CCC(Nc2cccc(F)c2)CC1` was inactive: 5%.
As to `CN(C)c1ccc(C(=O)NCC2(N3CCCCC3)CCCCC2)cc1`, the inhibition is inactive: -4.1%.
The same measure for `N#Cc1ccc(C(=O)NCC2(N3CCCCC3)CCCCC2)cc1`: inactive: -8.1%; for `c1ccc(CN2CCC(Nc3ccccc3)CC2)cc1`: inactive: 15.3%.
The value for `COc1ccc(C(=O)NCC2(N3CCOCC3)CCCCC2)cc1OC` was inactive: -6.6%; that for `N/C(=N\O)c1c(N)no[n+]1[O-]` was inactive: -10.7%; that for `O=C(OC1CN2CCC1CC2)C1c2ccccc2C=Cc2ccccc21` (stereo not given) was inactive: -12.9%.
In the case of `CC(C)c1ccc(NC2CCN(C(=O)OC(C)(C)C)CC2)cc1`, the inhibition was inactive: 13.1%.
With `CN(C)c1cccc(C(=O)NCC2(N3CCCCC3)CCCCC2)c1`, the inhibition was inactive: -54.7%.
The value for `COc1ccc(CN(CCCl)CCCl)cc1Cl` was inactive: 29%; that for `N#CC1(Nc2ccccc2)CCN(CCc2ccccc2)CC1` was inactive: 2%.
The same measure for `O=C(NCC1(N2CCCCC2)CCCCC1)c1cccc([N+](=O)[O-])c1`: inactive: -5.7%.
Turning to `O=C(NCC1(N2CCOCC2)CCCCC1)c1cc(=O)[nH]c2ccccc12`, the inhibition was inactive: 6%.
In the case of `COc1ccc(NC2CCN(C(=O)OC(C)(C)C)CC2)cc1`, the inhibition was inactive: 1.5%.
The value for `CN1CCN(CCOC(=O)C(O)(c2ccccc2)c2ccccc2)CC1` was inactive: 28.5%; that for `COc1ccc(NC2CCN(CCc3ccccc3)CC2)c(OC)c1` was inactive: 24.1%; that for `COc1ccc(C(=O)NCC2(N3CCCCC3)CCCCC2)c(OC)c1OC` was inactive: 0.9%.
The same measure for `O=C(NCC1(N2CCOCC2)CCCCC1)c1cc2ccccc2o1`: inactive: 3.7%; for `O=C(OC1CN2CCC1CC2)C1c2ccccc2Oc2ccccc21` (stereo not given): inactive: 5.3%; for `CCOC(=O)N1CCC(Nc2ccc(OC)cc2)CC1`: inactive: -1.7%.

The term inhibition denotes the drop in the measured response relative to a control, in per cent.

Values taken from PubChem BioAssay AID1209 (Sanford-Burnham Center for Chemical Genomics, 2008).
